{"source": "patent US20060093562A1", "about": "(priority 2004, published 2006)", "assay": "Solubility of SDS in glycerin/water solutions of potassium bicarbonate, potassium carbonate or sodium carbonate", "type": "physicochemical", "details": "134.06 g glycerin, 46.54 g water, 9.00 g potassium carbonate, room temperature, 100° F., and 122° F."}
{"molecule": "CCCCCCCCCCOS(=O)(=O)[O-].[Na+]", "note": "[SDS, Sodium Decyl Sulfate]", "values": [{"measurement": "Appearance of solution after SDS addition", "value": "turbid"}]}
